Laboratory results: patent US11118200B2, “Method for preparing amines from aldehydes and ketones by biocatalysis” (COMMISSARIAT A L'ENERGIE ATOMIQUE ET AUX ENERGIES …, priority 2017, dated 2021)
Marks after values point to notes of the source that are not given here.

Tested on: enzyme of SEQ ID NO:3
Assay: Screening of carbonyl-containing compounds with ammonia as amine source (specific activity, absorbance at 340 nm)
Type: biochemical, Microbacterium sp. MA1
Conditions: 0.2 mM NADPH (best of NADH/NADPH), 10 mM of carbonyl-containing compound
Method: All the reactions were conducted at 25° C. in spectrophotometric cell (10 mm light path). To a mixture of ammonium formate buffer (2 M NH4HCO2/NH4OH, pH 9.5), NADH or NADPH (0.2 mM) and an appropriate amount of purified enzyme was added.

Structure (SMILES): O=C1CCc2ccccc21
- Specific activity, SEQ ID NO: 3: 11.9^b mU.mg^-1
